{"sequences": {"note": "Chains of the proteins cited; added tags and fusions are not shown. Residues count along the entry.", "UniProt O00408, 2-941": "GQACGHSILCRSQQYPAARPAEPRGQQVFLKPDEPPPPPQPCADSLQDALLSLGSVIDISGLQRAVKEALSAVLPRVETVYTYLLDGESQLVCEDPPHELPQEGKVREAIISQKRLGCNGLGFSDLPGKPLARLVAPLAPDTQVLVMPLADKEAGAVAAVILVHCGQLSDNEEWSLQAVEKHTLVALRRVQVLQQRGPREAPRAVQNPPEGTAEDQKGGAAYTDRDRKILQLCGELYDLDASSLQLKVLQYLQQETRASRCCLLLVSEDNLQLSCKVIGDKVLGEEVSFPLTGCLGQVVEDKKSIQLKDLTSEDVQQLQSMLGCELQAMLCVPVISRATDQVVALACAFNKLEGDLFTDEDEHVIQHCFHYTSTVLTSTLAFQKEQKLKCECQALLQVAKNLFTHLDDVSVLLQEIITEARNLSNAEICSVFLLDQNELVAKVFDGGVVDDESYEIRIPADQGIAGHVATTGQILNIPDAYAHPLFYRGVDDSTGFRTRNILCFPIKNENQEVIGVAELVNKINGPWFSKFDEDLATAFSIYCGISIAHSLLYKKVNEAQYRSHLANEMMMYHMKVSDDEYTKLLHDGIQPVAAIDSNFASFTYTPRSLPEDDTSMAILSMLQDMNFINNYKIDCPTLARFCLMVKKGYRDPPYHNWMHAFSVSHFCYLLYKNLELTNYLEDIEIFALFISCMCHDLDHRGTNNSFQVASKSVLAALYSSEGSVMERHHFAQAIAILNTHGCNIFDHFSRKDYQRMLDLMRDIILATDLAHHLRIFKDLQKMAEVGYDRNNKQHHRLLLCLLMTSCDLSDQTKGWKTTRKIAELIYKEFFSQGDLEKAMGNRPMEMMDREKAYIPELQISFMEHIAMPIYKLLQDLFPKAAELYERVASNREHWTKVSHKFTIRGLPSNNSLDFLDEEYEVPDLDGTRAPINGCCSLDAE"}, "source": "patent US11186582B2", "about": "“Substituted [1,2,4]triazolo[1,5-a]pyrimidin-7-yl compounds as PDE2 inhibitors” (DART NEUROSCIENCE (CAYMAN) LTD., priority 2014, dated 2021)", "data": [{"target": "FLAG-tagged PDE2A1 (amino acids 2-941) (Homo sapiens (Human), UniProt O00408)", "experiment": "IMAP TR-FRET PDE2A phosphodiesterase enzymatic assay", "settings": "not given", "units": {"IC50": "nM"}, "values": [{"smiles": "COc1ccc(C(=O)N2CC(c3cc(C)nc4ncnn34)CC(F)(F)C2)c(C)c1", "note": "(stereo not shown) [Example 500, 3,3-Difluoro-1-(4-methoxy-2-methylbenzoyl)-5-{5-methyl-[1,2,4]triazolo[1,5-a]pyrimidin-7-yl}piperidine]", "IC50": "100 to 1000"}, {"smiles": "Cc1cc(C2CN(C(=O)c3ccc4ccccc4n3)CCO2)n2ncnc2n1", "note": "(stereo not shown) [Example 8, (2-(5-Methyl-[1,2,4]triazolo[1,5-a]pyrimidin-7-yl)morpholino)(quinolin-2-yl)methanone]", "IC50": "100 to 1000"}, {"smiles": "Cc1cc(C2CCCN(Cc3ccc(-c4ccncc4)cc3F)C2)n2ncnc2n1", "note": "(stereo not shown) [Example 23, 4-{3-Fluoro-4-[(3-{5-methyl-[1,2,4]triazolo[1,5-a]pyrimidin-7-yl}piperidin-1-yl)methyl]phenyl}pyridine]", "IC50": "100 to 1000"}, {"smiles": "Cc1cc([C@@H]2CN(C(=O)c3ccc(F)c(C)c3)CCO2)n2ncnc2n1", "note": "[Example 333, (2S)-4-(4-Fluoro-3-methylbenzoyl)-2-{5-methyl-[1,2,4]triazolo[1,5-a]pyrimidin-7-yl}morpholine]", "IC50": "100 to 1000"}, {"smiles": "Cc1cc(C2CCCN(C(=O)c3c(F)cccc3F)C2)n2ncnc2n1", "note": "(stereo not shown) [Example 472, 1-[(2,6-Difluorophenyl)carbonyl]-3-{5-methyl-[1,2,4]triazolo[1,5-a]pyrimidin-7-yl}piperidine]", "IC50": "> 10000"}, {"smiles": "Cc1cc(C2CCCN(Cc3ccc(OC(F)(F)F)c(F)c3)C2)n2ncnc2n1", "note": "(stereo not shown) [Example 188, 1-{[3-Fluoro-4-(trifluoromethoxy)phenyl]methyl}-3-{5-methyl-[1,2,4]triazolo[1,5-a]pyrimidin-7-yl}piperidine]", "IC50": "100 to 1000"}, {"smiles": "Cc1cc(C2CCCN(C(=O)c3cccc(F)c3F)C2)n2ncnc2n1", "note": "(stereo not shown) [Example 428, 1-[(2,3-Difluorophenyl)carbonyl]-3-{5-methyl-[1,2,4]triazolo[1,5-a]pyrimidin-7-yl}piperidine]", "IC50": "1000 to 10000"}, {"smiles": "Cc1cc(C2CCCN(Cc3ccc(-c4ccco4)cc3)C2)n2ncnc2n1", "note": "(stereo not shown) [Example 125, 1-{[4-(Furan-2-yl)phenyl]methyl}-3-{5-methy-[1,2,4]triazolo[1,5-a]pyrimidin-7-yl}piperidine]", "IC50": "100 to 1000"}, {"smiles": "COc1ccc(C(=O)N2CCOC(c3cc(C)nc4ncnn34)C2)cc1OC", "note": "(stereo not shown) [Example 544, 4-(3,4-Dimethoxybenzoyl)-2-{5-methyl-[1,2,4]triazolo[1,5-a]pyrimidin-7-yl}morpholine]", "IC50": "100 to 1000"}, {"smiles": "Cc1cc(C2CCCN(Cc3cccc(-c4ccccn4)c3)C2)n2ncnc2n1", "note": "(stereo not shown) [Example 49, 2-{3-[(3-{5-Methyl-[1,2,4]triazolo[1,5-a]pyrimidin-7-yl}piperidin-1-yl)methyl]phenyl}pyridine]", "IC50": "1000 to 10000"}, {"smiles": "Cc1cc([C@@H]2CCCN(Cc3ccc(Br)cc3)C2)n2ncnc2n1", "note": "[Example 133, (3R)-1-[(4-Bromophenyl)methyl]-3-{5-methyl-[1,2,4]triazolo[1,5-a]pyrimidin-7-yl}piperidine]", "IC50": "1000 to 10000"}, {"smiles": "Cc1cc(C2CCCN(Cc3ccc(C)c(F)c3)C2)n2ncnc2n1", "note": "(stereo not shown) [Example 161, 1-[(3-Fluoro-4-methylphenyl)methyl]-3-{5-methyl-[1,2,4]triazolo[1,5-a]pyrimidin-7-yl}piperidine]", "IC50": "100 to 1000"}, {"smiles": "Cc1cc(C2CCCN(Cc3ccc4c(c3)OCO4)C2)n2ncnc2n1", "note": "(stereo not shown) [Example 97, 1-(2H-1,3-Benzodioxol-5-ylmethyl)-3-{5-methyl-[1,2,4]triazolo[1,5-a]pyrimidin-7-yl}piperidine]", "IC50": "> 10000"}, {"smiles": "Cc1cc(C2CN(C(=O)c3cc(Cl)cc(Cl)c3)CCO2)n2ncnc2n1", "note": "(stereo not shown) [Example 222, 4-[(3,5-Dichlorophenyl)carbonyl]-2-{5-methyl-[1,2,4]triazolo[1,5-a]pyrimidin-7-yl}morpholine]", "IC50": "100 to 1000"}, {"smiles": "Cc1cc(C2CCCN(C(=O)c3cnoc3C3CC3)C2)n2ncnc2n1", "note": "(stereo not shown) [Example 429, 1-[(5-Cyclopropyl-1,2-oxazol-4-yl)carbonyl]-3-{5-methyl-[1,2,4]triazolo[1,5-a]pyrimidin-7-yl}piperidine]", "IC50": "> 10000"}, {"smiles": "Cc1cc(C2CCCN(Cc3ccc(F)cc3)C2)n2ncnc2n1", "note": "(stereo not shown) [Example 82, 1-[(4-Fluorophenyl)methyl]-3-{5-methyl-[1,2,4]triazolo[1,5-a]pyrimidin-7-yl}piperidine]", "IC50": "> 10000"}, {"smiles": "Cc1cc(C2CCCN(Cc3ccc(Cl)c(Br)c3)C2)n2ncnc2n1", "note": "(stereo not shown) [Example 168, 1-[(3-Bromo-4-chlorophenyl)methyl]-3-{5-methyl-[1,2,4]triazolo[1,5-a]pyrimidin-7-yl}piperidine]", "IC50": "100 to 1000"}, {"smiles": "Cc1cc([C@@H]2CN(C(=O)c3ccc(C4CC4)c(F)c3)CCO2)n2ncnc2n1", "note": "[Example 323, (2S)-4-(4-Cyclopropyl-3-fluorobenzoyl)-2-{5-methyl-[1,2,4]triazolo[1,5-a]pyrimidin-7-yl}morpholine]", "IC50": "100 to 1000"}, {"smiles": "Cc1cc(C2CCCN(Cc3ccc(N4CCCCC4)cc3)C2)n2ncnc2n1", "note": "(stereo not shown) [Example 47, 3-{5-Methyl-[1,2,4]triazolo[1,5-a]pyrimidin-7-yl}-1-{[4-(piperidin-1-yl)phenyl]methyl}piperidine]", "IC50": "> 10000"}, {"smiles": "Cc1cc(C2CN(C(=O)c3ccc(F)c(C(F)(F)F)c3)CCO2)n2ncnc2n1", "note": "(stereo not shown) [Example 216, 4-{[4-Fluoro-3-(trifluoromethyl)phenyl]carbonyl}-2-{5-methyl-[1,2,4]triazolo[1,5-a]pyrimidin-7-yl}morpholine]", "IC50": "1000 to 10000"}, {"smiles": "Cc1cc(C2CCCN(Cc3ccc(C(C)(C)C)cc3)C2)n2ncnc2n1", "note": "(stereo not shown) [Example 153, 1-[(4-tert-Butylphenyl)methyl]-3-{5-methyl-[1,2,4]triazolo[1,5-a]pyrimidin-7-yl}piperidine]", "IC50": "1000 to 10000"}, {"smiles": "Cc1cc(C2CCCN(Cc3ccccc3-n3ccnc3)C2)n2ncnc2n1", "note": "(stereo not shown) [Example 67, 1-{[2-(1H-Imidazol-1-yl)phenyl]methyl}-3-{5-methyl-[1,2,4]triazolo[1,5-a]pyrimidin-7-yl}piperidine]", "IC50": "> 10000"}, {"smiles": "Cc1cc(C2CCCN(Cc3ccc(-c4cccnc4)cc3F)C2)n2ncnc2n1", "note": "(stereo not shown) [Example 36, 3-{3-Fluoro-4-[(3-{5-methyl-[1,2,4]triazolo[1,5-a]pyrimidin-7-yl}piperidin-1-yl)methyl]phenyl}pyridine]", "IC50": "100 to 1000"}, {"smiles": "Cc1cc(C2CCCN(C(=O)c3ccc(Cl)cc3)C2)n2ncnc2n1", "note": "(stereo not shown) [Example 444, 1-[(4-Chlorophenyl)carbonyl]-3-{5-methyl-[1,2,4]triazolo[1,5-a]pyrimidin-7-yl}piperidine]", "IC50": "100 to 1000"}, {"smiles": "Cc1cc(C2CCCN(C(=O)[C@H]3COc4ccccc4O3)C2)n2ncnc2n1", "note": "(stereo partly drawn) [Example 379, 1-[(2R)-2,3-Dihydro-1,4-benzodioxine-2-carbonyl]-3-{5-methyl-[1,2,4]triazolo[1,5-a]pyrimidin-7-yl}piperidine]", "IC50": "100 to 1000"}]}, {"target": "FLAG-tagged PDE2A1 (amino acids 2-941) (Homo sapiens (Human), UniProt O00408)", "experiment": "IMAP TR-FRET PDE2A phosphodiesterase enzymatic assay", "settings": "IMAP TR-FRET, 200 nM FAM-cAMP substrate, 11-point half-log dose-response", "values": [{"smiles": "COc1cccc(C(=O)N2CC(c3cc(C)nc4ncnn34)CC(F)(F)C2)c1", "note": "(stereo not shown) [Example 517, 3,3-Difluoro-1-(3-methoxybenzoyl)-5-{5-methyl-[1,2,4]triazolo[1,5-a]pyrimidin-7-yl}piperidine]", "PDE2 (pIC50)": ">7"}, {"smiles": "COc1ccc2c(c1)OCC(C(=O)N1CC(c3cc(C)nc4ncnn34)CC(F)(F)C1)C2", "note": "(stereo not shown) [Example 365, 3,3-Difluoro-1-(7-methoxy-3,4-dihydro-2H-1-benzopyran-3-carbonyl)-5-{5-methyl-[1,2,4]triazolo[1,5-a]pyrimidin-7-yl}piperidine]", "PDE2 (pIC50)": ">7"}, {"smiles": "Cc1cc([C@H]2CN(C(=O)c3cc(F)cc(Br)c3)CC(F)(F)C2)n2ncnc2n1", "note": "[Example 270, (5R)-1-(3-Bromo-5-fluorobenzoyl)-3,3-difluoro-5-{5-methyl-[1,2,4]triazolo[1,5-a]pyrimidin-7-yl}piperidine]", "PDE2 (pIC50)": ">7"}, {"smiles": "Cc1cc(C2CN(C(=O)c3ccc(C4CC4)cc3)CC(F)(F)C2)n2ncnc2n1", "note": "(stereo not shown) [Example 299, 1-[(4-Cyclopropylphenyl)carbonyl]-3,3-difluoro-5-{5-methyl-[1,2,4]triazolo[1,5-a]pyrimidin-7-yl}piperidine]", "PDE2 (pIC50)": ">7"}, {"smiles": "Cc1cc(C2CCCN(C(=O)c3ccc4c(c3)OC(F)(F)O4)C2)n2ncnc2n1", "note": "(stereo not shown) [Example 350, 1-[(2,2-Difluoro-2H-1,3-benzodioxol-5-yl)carbonyl]-3-{5-methyl-[1,2,4]triazolo[1,5-a]pyrimidin-7-yl}piperidine]", "PDE2 (pIC50)": ">7"}, {"smiles": "Cc1cc(C2CN(C(=O)c3cc(Br)cc(Br)c3)CC(F)(F)C2)n2ncnc2n1", "note": "(stereo not shown) [Example 259, 1-[(3,5-Dibromophenyl)carbonyl]-3,3-difluoro-5-{5-methyl-[1,2,4]triazolo[1,5-a]pyrimidin-7-yl}piperidine]", "PDE2 (pIC50)": ">7"}, {"smiles": "COc1ccc2cc(C(=O)N3CCOC(c4cc(C)nc5ncnn45)C3)ccc2c1", "note": "(stereo not shown) [Example 557, 4-(6-Methoxynaphthalene-2-carbonyl)-2-{5-methyl-[1,2,4]triazolo[1,5-a]pyrimidin-7-yl}morpholine]", "PDE2 (pIC50)": ">7"}, {"smiles": "Cc1cc(C2CCCN(Cc3cnc(Br)s3)C2)n2ncnc2n1", "note": "(stereo not shown) [Example 200, 1-[(2-Bromo-1,3-thiazol-5-yl)methyl]-3-{5-methyl-[1,2,4]triazolo[1,5-a]pyrimidin-7-yl}piperidine]", "PDE2 (pIC50)": ">7"}, {"smiles": "Cc1cc([C@@H]2CN(C(=O)c3ccc(F)c(Br)c3)CCO2)n2ncnc2n1", "note": "[Example 254, (2S)-4-[(3-Bromo-4-fluorophenyl)carbonyl]-2-{5-methyl-[1,2,4]triazolo[1,5-a]pyrimidin-7-yl}morpholine]", "PDE2 (pIC50)": ">7"}, {"smiles": "Cc1cc(C2CCCN(C(=O)c3cc(C)n(-c4ccc(C(C)C)cc4)n3)C2)n2ncnc2n1", "note": "(stereo not shown) [Example 346, 1-{5-Methyl-1-[4-(propan-2-yl)phenyl]-1H-pyrazole-3-carbonyl}-3-{5-methyl-[1,2,4]triazolo[1,5-a]pyrimidin-7-yl}piperidine]", "PDE2 (pIC50)": ">7"}, {"smiles": "Cc1cc(C2CCCN(C(=O)c3ccc4c(c3)OCO4)C2)n2ncnc2n1", "note": "(stereo not shown) [Example 448, 1-[(2H-1,3-Benzodioxol-5-yl)carbonyl]-3-{5-methyl-[1,2,4]triazolo[1,5-a]pyrimidin-7-yl}piperidine]", "PDE2 (pIC50)": ">7"}, {"smiles": "Cc1cc(C2CCCN(C(=O)c3ccc4cc(F)ccc4c3)C2)n2ncnc2n1", "note": "(stereo not shown) [Example 348, 1-[(6-Fluoronaphthalen-2-yl)carbonyl]-3-{5-methyl-[1,2,4]triazolo[1,5-a]pyrimidin-7-yl}piperidine]", "PDE2 (pIC50)": ">7"}]}]}
